Earlier results in patent publication US5811405A, “Multiply fucosylated dicarboxylic acids possessing antiadhesive properties” (Hoechst Aktiengesellschaft, priority 1996, dated 1998).

Legend:
[1] = system: P selectin-dependent lung injuries; details: M. S. Mulligan et al., 1993; cited from earlier work
E selectin = target: T1, E selectin (Homo sapiens, UniProt P16581); details: HL-60 and U-937 cells; Dasgupta et al., 5/94; read-out: IC50 for inhibiting adhesion of HL-60 and U-937 cells, E selectin; cited from earlier work
T1 sequence (P16581 22-610): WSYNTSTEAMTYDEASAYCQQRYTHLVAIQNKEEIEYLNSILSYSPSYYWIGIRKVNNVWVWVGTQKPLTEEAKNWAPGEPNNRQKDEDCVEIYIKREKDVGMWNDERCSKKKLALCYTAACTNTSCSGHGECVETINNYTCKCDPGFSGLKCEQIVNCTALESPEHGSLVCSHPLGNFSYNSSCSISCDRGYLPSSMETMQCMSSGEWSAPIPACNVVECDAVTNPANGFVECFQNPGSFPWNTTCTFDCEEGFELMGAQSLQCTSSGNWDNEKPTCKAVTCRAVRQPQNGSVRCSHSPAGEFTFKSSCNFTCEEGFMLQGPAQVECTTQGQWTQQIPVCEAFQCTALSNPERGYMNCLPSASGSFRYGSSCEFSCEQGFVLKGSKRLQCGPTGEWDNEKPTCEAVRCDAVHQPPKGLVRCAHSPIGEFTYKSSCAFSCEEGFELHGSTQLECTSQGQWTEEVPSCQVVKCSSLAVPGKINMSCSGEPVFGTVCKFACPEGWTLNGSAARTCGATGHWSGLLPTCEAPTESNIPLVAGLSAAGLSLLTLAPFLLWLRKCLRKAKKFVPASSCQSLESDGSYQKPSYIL

In the case of sialyl Lewis X [SLeX], the “use in animal experiments, P selectin-dependent lung injuries” value [1] is listed as “used successfully” and the pIC50 (E selectin) is listed as 2.70 to 2.92.

pIC50: −log10 of the molar value.
